The chains behind the UniProt entries cited, without tags or fusion partners.
UniProt P03372, whole entry: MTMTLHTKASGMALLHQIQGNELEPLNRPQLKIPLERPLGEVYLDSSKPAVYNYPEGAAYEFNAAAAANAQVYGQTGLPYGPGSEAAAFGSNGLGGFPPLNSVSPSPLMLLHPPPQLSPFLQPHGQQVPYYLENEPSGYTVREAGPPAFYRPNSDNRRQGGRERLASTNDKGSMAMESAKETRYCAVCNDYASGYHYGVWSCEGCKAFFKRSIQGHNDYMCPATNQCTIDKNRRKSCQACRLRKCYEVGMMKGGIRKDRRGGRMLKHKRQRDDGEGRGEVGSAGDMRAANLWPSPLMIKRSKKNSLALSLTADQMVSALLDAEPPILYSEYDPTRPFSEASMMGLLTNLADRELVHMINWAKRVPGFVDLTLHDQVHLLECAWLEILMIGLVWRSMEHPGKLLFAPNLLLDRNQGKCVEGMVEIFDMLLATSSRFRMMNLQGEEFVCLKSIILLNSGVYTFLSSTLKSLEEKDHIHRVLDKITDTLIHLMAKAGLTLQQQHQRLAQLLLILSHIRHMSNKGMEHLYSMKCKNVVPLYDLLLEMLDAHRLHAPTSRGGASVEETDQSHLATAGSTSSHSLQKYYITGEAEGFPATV

The list shows a part of the results, in another mix than the full data. Active and inactive are the calls of the source. Rule as the data show it: active = inhibition above about 50%; inactive = the rest.
These molecules were tested against Estrogen receptor (Homo sapiens) (UniProt P03372) (assay: ERα–SRC-1 coactivator interaction inhibitors, primary screen, biochemical, TR-FRET, ERα LBD, estradiol-bound (AID 629;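 also: 0% = receptor plus peptide control and 100% = peptide only without receptor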)). Details: TR-FRET ER-alpha LBD / SRC-1 peptide, at 25.6 µM, stronger effect = higher value.
For `CCOc1ncccc1C(=O)NCC1(N2CCOCC2)CCCCC1`, the inhibition was inactive: -6.25%. For `CCC(CO)(C(=O)OC1CN2CCC1CC2)c1ccccc1` (centres undefined), the inhibition was inactive: -13.7%. For `Fc1ccccc1NC1CCN(Cc2ccccc2)CC1`, the inhibition was inactive: -4.9%. For `c1ccc(CN2CCC(Nc3ccccc3)CC2)cc1`, the inhibition was inactive: 7.96%. For `N/C(=N\O)c1c(N)no[n+]1[O-]`, the inhibition was inactive: 7.66%. With `N#CC1(Nc2ccccc2)CCN(CCc2ccccc2)CC1` the inhibition was inactive: -13.4%. `O=C(NCC1(N2CCOCC2)CCCCC1)c1cc(=O)[nH]c2ccccc12` was tested, and the inhibition was inactive: 20.5%. With `O=C(OC1CN2CCC1CC2)C1c2ccccc2Oc2ccccc21` (centres undefined) the inhibition was inactive: 6.32%. In the case of `O=C(NCC1(N2CCOCC2)CCCCC1)c1cc2ccccc2o1`, the inhibition is reported as inactive: -7.57%.

— PubChem BioAssay AID629 (Emory University Molecular Libraries Screening Center, 2007)
